This is a sample that favours compounds with a hit; in the whole collection about 4.2% have one here.
HDAC3 inh: HDAC3 deacetylase inhibitors, primary screen, biochemical, fluorescence, cell-free homogeneous; Histone deacetylase 3 (Homo sapiens), O15379; recombinant HDAC3, fluorogenic peptide/trypsin coupled; inhibition, % at 8.3 µM; hit rate 0.15% among 320,000; in the data active = inhibition above about 26%, passing the limit was not always enough; inconclusive = no clear call, values can overlap the other calls
MC4R antagonist: MC4R antagonists of cAMP signaling, primary screen, cell-based, TR-FRET, antagonist arm of biased-ligand search | MC4R-expressing cells, MTII-stimulated cAMP, LANCE TR-FRET | hit rate 0.48% among 360,000 | Melanocortin receptor 4 (Homo sapiens), P32245 | inhibition, % at 6.5 µM;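 active = inhibition above its plate's cutoff, the mean of tested wells on that plate plus 3 SD, cut at about 29% in these data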;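 note: 0% = Melanotan II alone and 100% = Melanotan II plus saturating MCL0020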
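Material: human MC4R-expressing U2OS cells. Probe or stimulus: Melanotan II challenge. Dosing: 6.5 µM single dose. Times: 30-min compound, 1-h challenge, 1-h detection, room temperature. Technique: TR-FRET with Eu-cAMP and labeled anti-cAMP, 671 nm. Replication: singlicate.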
MC4R ag barr: MC4R agonists recruiting beta-arrestin, primary screen, cell-based, luminescence, agonist arm of biased-ligand search; Melanocortin receptor 4 (Homo sapiens), P32245; U2OS MC4R beta-arrestin complementation; percent of melanotan II response, DMSO zero; activation, % at 8.9 µM; hit rate 0.98% among 360,000; AID 540308, 2011;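 active = activation above a per-plate cutoff, the mean activation of sample wells on that plate plus 3 SD, cut at about 8% in these data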
UUG fidelity: yeast start codon fidelity modulation; actives 0.13% (n = 350,000); activity score, % at 18.7 µM; S. cerevisiae UUG-firefly luciferase reporter, luminescence/redox ratio;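 active = replicate mean at a twofold rise or more, about +100% in these data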;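 note: firefly luciferase made from a UUG start codon reports start codon fidelity; reporter light over untreated wells divided by growth signal over untreated wells; some hits fall short of that in this replicate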
ALR H2O2 inh: inhibitors of human sulfhydryl oxidase ALR; AID 485317; purified ALR, DTT oxidation, H2O2 HRP-luminol luminescence; inhibition, % (concentration not given with the values); P55789; hit rate 3.8% among 290,000;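 active = mean and each replicate at 75% or more; inconclusive = only one of the two met; inactive = neither met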;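 note: stock transfer was 7.5 nL into about 7.5 µL; 0% = neutral wells and 100% = wells with inactivated enzyme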
NALP1 yeast inh: NALP1 inflammasome inhibitors in reconstituted yeast, colorimetric, S. cerevisiae, triplicate retest. AID 2071, 2009. S. cerevisiae NALP1/ASC/caspase-1 growth, X-gal OD620, 72 h. inhibition, % at 10 µM. hit rate 0.61% among 280,000; in the data active = inhibition mostly above about 24%, no sharp cut-off; inactive = mostly below about 32%
* = called active by the depositor; ? = inconclusive; · = not tested or not shown.

Chains of the proteins cited; added tags and fusions are not shown.
Melanocortin receptor 4 (Homo sapiens), P32245, UniProt P32245, whole entry, looked up: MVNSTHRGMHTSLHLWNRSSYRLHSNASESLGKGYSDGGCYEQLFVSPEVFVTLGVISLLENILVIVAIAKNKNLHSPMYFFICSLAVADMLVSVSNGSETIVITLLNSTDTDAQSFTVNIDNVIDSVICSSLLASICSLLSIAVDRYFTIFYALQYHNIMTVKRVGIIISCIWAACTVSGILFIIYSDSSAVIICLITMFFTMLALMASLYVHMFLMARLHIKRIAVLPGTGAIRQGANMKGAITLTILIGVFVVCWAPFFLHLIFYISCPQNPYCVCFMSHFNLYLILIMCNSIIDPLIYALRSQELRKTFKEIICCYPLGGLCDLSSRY

| no. | mol | HDAC3 inh | MC4R antagonist | MC4R ag barr | UUG fidelity | ALR H2O2 inh | NALP1 yeast inh |
| --- | --- | --- | --- | --- | --- | --- | --- |
| 1 | O=C(C[C@@H]1CC[C@H]2[C@@H](COC[C@H](O)CN2C(=O)Nc2ccc(C(F)(F)F)cc2)O1)NCCc1ccncc1 | · | · | · | -1.0 | · | · |
| 2 | CC(=O)N1CCc2cc(S(=O)(=O)NCCC(=O)Nc3cccc(C)c3)ccc21 | -2.2 | 5.7 | 1.4 | -17.8 | -4.7 | 1.1 |
| 3 | CCN(CCCNS(=O)(=O)c1ccc2c(c1)CCN2C(C)=O)c1cccc(C)c1 | 0.8 | -3.7 | -0.4 | -3.3 | 96.7* | -9.2 |
| 4 | CC(=O)c1cccc(NC(=O)CN(C)S(=O)(=O)c2cccc3nsnc23)c1 | 6.3 | 5.5 | 0.5 | -9.7 | -2.6 | 32.2* |
| 5 | Cc1ccc(NC(=O)CN(C)S(=O)(=O)c2cccc3nsnc23)cc1 | 3.7 | -2.4 | 0.4 | · | 3.8 | 33.9 |
| 6 | C=C[C@@H](OC)[C@H](OC(=O)Nc1ccc(SC)cc1)c1ccc(OCCO)cc1 | · | · | · | -1.5 | · | · |
| 7 | CN(C)CCCN(C(=O)CCc1ccccc1)c1nc2c(F)cccc2s1 | 1.1 | -0.6 | 0.6 | -6.2 | 0.1 | 24.6 |
| 8 | Cc1cccc2sc(N(CCN(C)C)C(=O)/C=C/c3cccs3)nc12 | 5.9 | 3.1 | 0.0 | -28.0 | -2.8 | 54.4* |
| 9 | CN(C)CCCN(C(=O)/C=C/c1cccs1)c1nc2c(F)cccc2s1 | · | -0.5 | 1.5 | · | · | 7.3 |
| 10 | Cc1cccc2sc(N(CCCN(C)C)C(=O)c3sc4ccccc4c3Cl)nc12 | 4.0 | -4.4 | 3.3 | -0.4 | 2.1 | 54.1* |
| 11 | CN(C)CCCN(C(=O)CCOc1ccccc1)c1nc2c(F)cccc2s1 | · | -9.7 | -2.9 | · | · | 52.2* |
| 12 | C[C@@H]1CN([C@H](C)CO)C(=O)c2cc(-c3cccc(C(=O)N(C)C)c3)cnc2O[C@H]1CN(C)S(=O)(=O)c1ccccc1 | · | · | · | 2.2 | · | · |
| 13 | O=C(C[C@@H]1C=C[C@H](NC(=O)c2ccc(F)cc2)[C@@H](CO)O1)NCCc1ccccc1 | · | · | · | -7.4 | · | · |
| 14 | COC(=O)c1ccsc1NS(=O)(=O)c1ccccc1 | -1.4 | 5.1 | -1.5 | 2.1 | 80.5* | 10.0 |
| 15 | COC(=O)c1sccc1NS(=O)(=O)c1ccccc1 | 2.3 | 0.9 | -3.3 | -10.5 | -8.5 | 2.1 |
| 16 | COc1ccc(S(=O)(=O)N2C[C@@H](O)COC[C@@H]3O[C@@H](CC(=O)NCc4ccc(Cl)c(Cl)c4)CC[C@H]32)cc1 | · | · | · | 27.5 | · | · |
| 17 | Cc1ccccc1S(=O)(=O)N1C[C@@H](O)COC[C@H]2O[C@@H](CC(=O)N3CCC(Cc4ccccc4)CC3)CC[C@@H]21 | · | · | · | 14.5 | · | · |
| 18 | O=C(CCn1c(=O)oc2ccccc21)n1c(=O)oc2ccccc21 | -3.5 | 8.8 | 1.4 | -21.0 | 96.2* | -13.7 |
| 19 | O=C(CCn1c(=O)oc2ccccc21)N1CCCCCC1 | 4.2 | 3.9 | -0.5 | -22.2 | -0.9 | -84.6 |
| 20 | O=C(NCc1cccc(CNC(=O)C(=O)NCc2ccco2)c1)C(=O)NCc1ccco1 | 2.6 | -1.0 | 9.6* | · | -5.9 | 5.3 |
| 21 | Cc1c(Br)cc(C(=O)NCc2ccco2)c(C)c1C | 0.2 | 1.4 | -1.4 | -7.6 | 98.1* | 6.5 |
| 22 | O=C(NCc1ccco1)c1ccccc1-c1nc(-c2ccc(F)cc2)no1 | -2.5 | -0.1 | -0.6 | · | 1.5 | 8.2 |
| 23 | O=C(NCc1cccc(CNC(=O)c2ccco2)c1)c1ccco1 | -2.6 | 2.1 | -2.3 | -16.2 | -2.8 | -10.0 |
| 24 | Cc1ccccc1-c1noc(-c2ccccc2C(=O)NCc2ccco2)n1 | 0.2 | 2.8 | 1.6 | · | 14.9 | 38.7* |
| 25 | C[C@@H](O)C#Cc1ccc([C@@H]2[C@@H](CO)N3CCCCN(C(=O)Nc4ccccc4)C[C@H]23)cc1 | · | · | · | 30.4 | · | · |
| 26 | COc1ccccc1S(=O)(=O)N1CC[C@H]2[C@H](CO)Nc3ccc(-c4cccc(C#N)c4)cc3[C@H]21 | · | · | · | -4.0 | · | · |
| 27 | CN1CCN(C(=O)C[C@@H]2CC[C@H]3[C@@H](COC[C@H](O)CN3CC3CCCCC3)O2)CC1 | · | · | · | -3.1 | · | · |
| 28 | Cc1nn(-c2ccccc2)c2[nH]c(=O)c(CNCCN3CCOCC3)cc12 | 2.5 | 0.9 | -1.8 | -16.6 | 91.0* | 11.7 |
| 29 | Cc1nn(-c2ccccc2)c2[nH]c(=O)c(CNCc3ccc4c(c3)OCO4)cc12 | 1.6 | 10.3 | 0.8 | -0.5 | 6.7 | 31.5 |
| 30 | CCN(Cc1ccc(OC)c(F)c1)C(=O)CCl | -7.4 | 10.3 | -1.0 | · | 96.6* | 11.1 |
| 31 | C[C@@H]1CN([C@H](C)CO)S(=O)(=O)c2ccc(C#CC3(O)CCCC3)cc2O[C@H]1CN(C)C(=O)Cc1cccnc1 | · | · | · | -1.5 | · | · |
| 32 | O=c1oc2cc(O)ccc2c2ccccc12 | 0.5 | 20.0 | 1.1 | 65.6 | 88.0* | -9.0 |
| 33 | COc1ccc2c(c1)c(=O)oc1cc(O)ccc12 | -4.8 | -1.4 | -1.1 | -11.4 | -2.6 | -10.0 |
| 34 | CCOc1ccc(/C=C/C(=O)Nc2ccc(OC)cc2[N+](=O)[O-])cc1 | -3.2 | -8.8 | 34.3* | · | -9.0 | 23.8 |
| 35 | CCOc1ccc(OCC(=O)Nc2ccc(OC)cc2[N+](=O)[O-])cc1 | 4.4 | -6.4 | 0.8 | · | -7.8 | 22.1 |
| 36 | CCOc1ccc(/C=C/C(=O)Nc2ccccc2C(F)(F)F)cc1 | 2.0 | 7.1 | 8.8* | · | -0.3 | 18.5 |
| 37 | COCC(=O)Nc1ccc2c(c1)C(=O)N(C)C[C@@H](OC)[C@@H](C)CN(Cc1ccccc1OC)[C@@H](C)CO2 | · | · | · | -6.1 | · | · |
| 38 | COc1cccc(OC)c1-c1nn2c(-c3cc(-c4ccccc4)n[nH]3)nnc2s1 | ? | -4.7 | 36.1* | 1.9 | -9.5 | -7.6 |
| 39 | Oc1ccc(N2CCN(Cc3ccc(OCCCN4CCCCC4)cc3)CC2)cc1 | 3.9 | 25.1 | 1.4 | · | 99.2* | 9.8 |
| 40 | CCN(CC)CCN1CCn2c3c(c4cc(C)ccc42)CCCC31 (stereo not given) | -1.1 | -2.3 | 1.0 | · | 99.3* | 25.2 |

Entries of single compounds from above.
Record of O=c1oc2cc(O)ccc2c2ccccc12 → HDAC3 inh = 0.5; MC4R antagonist = 20.0; MC4R ag barr = 1.1; UUG fidelity = 65.6; ALR H2O2 inh = 88.0*; NALP1 yeast inh = -9.0
Record of CN(C)CCCN(C(=O)CCOc1ccccc1)c1nc2c(F)cccc2s1 → HDAC3 inh = ·; MC4R antagonist = -9.7; MC4R ag barr = -2.9; UUG fidelity = ·; ALR H2O2 inh = ·; NALP1 yeast inh = 52.2*

Next section
| no. | mol | HDAC3 inh | MC4R antagonist | MC4R ag barr | UUG fidelity | ALR H2O2 inh | NALP1 yeast inh |
| --- | --- | --- | --- | --- | --- | --- | --- |
| 41 | Cn1c(=O)n(Cc2ccco2)c(=N)c2c3c(sc21)CCC3 | -0.4 | -1.5 | -0.1 | -13.0 | 76.5* | · |
| 42 | O=c1[nH]c2sc3c(c2c(=O)n1Cc1ccccc1)CCC3 | 0.3 | 0.8 | -0.3 | · | 56.3 | 7.8 |
| 43 | CN(C)CCCn1c(=O)n(Cc2ccco2)c(=O)c2c3c(sc21)CCCCC3 | -4.3 | -10.1 | -3.0 | · | 6.0 | 33.8 |
| 44 | O=c1c2c3c(sc2[nH]c(=S)n1Cc1ccco1)CCC3 | · | 9.9 | -2.6 | -32.6 | 93.5* | 6.4 |
| 45 | COc1ccc(NC(=O)N(C)C[C@@H]2Oc3c(NC(=O)Nc4ccc(C(F)(F)F)cc4)cccc3C(=O)N([C@@H](C)CO)C[C@@H]2C)cc1 | · | · | · | -0.8 | · | · |
| 46 | COc1ccc(NC(=O)Nc2ccc3c(c2)C(=O)N([C@H](C)CO)C[C@H](C)[C@H](CN(C)C(=O)Nc2c(C)noc2C)OCCCC[C@H](C)O3)cc1 | · | · | · | -18.5 | · | · |

Compounds shown so far that contain a nitro group on carbon:
| no. | mol | HDAC3 inh | MC4R antagonist | MC4R ag barr | UUG fidelity | ALR H2O2 inh | NALP1 yeast inh |
| --- | --- | --- | --- | --- | --- | --- | --- |
| 34 | CCOc1ccc(/C=C/C(=O)Nc2ccc(OC)cc2[N+](=O)[O-])cc1 | -3.2 | -8.8 | 34.3* | · | -9.0 | 23.8 |
| 35 | CCOc1ccc(OCC(=O)Nc2ccc(OC)cc2[N+](=O)[O-])cc1 | 4.4 | -6.4 | 0.8 | · | -7.8 | 22.1 |
